Reference: ChEMBL document CHEMBL5055648, “Design, synthesis, and biological evaluation of novel Bcr-AblT315I inhibitors incorporating amino acids as flexible linker” (Bioorg Med Chem, 2021)

Chains of the proteins cited; added tags and fusions are not shown. Lines headed by an entry give the natural chain unless they say otherwise; changes in a name come on top.
UniProt P00519, whole entry, looked up: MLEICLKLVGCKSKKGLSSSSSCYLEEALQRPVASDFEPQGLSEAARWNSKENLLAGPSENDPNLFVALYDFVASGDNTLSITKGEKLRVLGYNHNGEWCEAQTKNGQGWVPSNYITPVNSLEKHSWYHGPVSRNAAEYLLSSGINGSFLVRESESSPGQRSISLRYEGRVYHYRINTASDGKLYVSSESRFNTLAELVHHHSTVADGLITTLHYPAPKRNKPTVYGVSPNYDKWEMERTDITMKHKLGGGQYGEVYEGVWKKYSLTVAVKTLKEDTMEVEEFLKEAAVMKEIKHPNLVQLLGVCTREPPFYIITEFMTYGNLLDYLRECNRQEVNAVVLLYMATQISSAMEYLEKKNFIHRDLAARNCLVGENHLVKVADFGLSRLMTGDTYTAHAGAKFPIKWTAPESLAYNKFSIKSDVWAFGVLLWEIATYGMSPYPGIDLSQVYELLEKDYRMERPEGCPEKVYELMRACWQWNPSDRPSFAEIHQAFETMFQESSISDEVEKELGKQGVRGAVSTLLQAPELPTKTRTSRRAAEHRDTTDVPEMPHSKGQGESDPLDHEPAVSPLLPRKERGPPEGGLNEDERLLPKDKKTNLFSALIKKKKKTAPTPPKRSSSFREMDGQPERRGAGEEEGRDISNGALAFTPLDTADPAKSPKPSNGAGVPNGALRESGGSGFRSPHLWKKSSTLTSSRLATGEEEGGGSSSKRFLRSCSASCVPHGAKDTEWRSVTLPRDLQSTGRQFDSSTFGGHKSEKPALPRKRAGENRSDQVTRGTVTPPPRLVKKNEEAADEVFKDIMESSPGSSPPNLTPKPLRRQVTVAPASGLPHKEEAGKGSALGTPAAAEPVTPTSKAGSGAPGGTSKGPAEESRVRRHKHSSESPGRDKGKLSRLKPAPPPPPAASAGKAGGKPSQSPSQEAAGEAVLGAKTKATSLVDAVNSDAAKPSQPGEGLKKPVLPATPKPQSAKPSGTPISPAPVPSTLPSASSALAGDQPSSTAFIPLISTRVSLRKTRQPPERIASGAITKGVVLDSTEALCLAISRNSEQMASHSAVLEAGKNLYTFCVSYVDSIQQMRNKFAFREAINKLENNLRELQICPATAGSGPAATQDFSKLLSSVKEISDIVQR
UniProt P11274: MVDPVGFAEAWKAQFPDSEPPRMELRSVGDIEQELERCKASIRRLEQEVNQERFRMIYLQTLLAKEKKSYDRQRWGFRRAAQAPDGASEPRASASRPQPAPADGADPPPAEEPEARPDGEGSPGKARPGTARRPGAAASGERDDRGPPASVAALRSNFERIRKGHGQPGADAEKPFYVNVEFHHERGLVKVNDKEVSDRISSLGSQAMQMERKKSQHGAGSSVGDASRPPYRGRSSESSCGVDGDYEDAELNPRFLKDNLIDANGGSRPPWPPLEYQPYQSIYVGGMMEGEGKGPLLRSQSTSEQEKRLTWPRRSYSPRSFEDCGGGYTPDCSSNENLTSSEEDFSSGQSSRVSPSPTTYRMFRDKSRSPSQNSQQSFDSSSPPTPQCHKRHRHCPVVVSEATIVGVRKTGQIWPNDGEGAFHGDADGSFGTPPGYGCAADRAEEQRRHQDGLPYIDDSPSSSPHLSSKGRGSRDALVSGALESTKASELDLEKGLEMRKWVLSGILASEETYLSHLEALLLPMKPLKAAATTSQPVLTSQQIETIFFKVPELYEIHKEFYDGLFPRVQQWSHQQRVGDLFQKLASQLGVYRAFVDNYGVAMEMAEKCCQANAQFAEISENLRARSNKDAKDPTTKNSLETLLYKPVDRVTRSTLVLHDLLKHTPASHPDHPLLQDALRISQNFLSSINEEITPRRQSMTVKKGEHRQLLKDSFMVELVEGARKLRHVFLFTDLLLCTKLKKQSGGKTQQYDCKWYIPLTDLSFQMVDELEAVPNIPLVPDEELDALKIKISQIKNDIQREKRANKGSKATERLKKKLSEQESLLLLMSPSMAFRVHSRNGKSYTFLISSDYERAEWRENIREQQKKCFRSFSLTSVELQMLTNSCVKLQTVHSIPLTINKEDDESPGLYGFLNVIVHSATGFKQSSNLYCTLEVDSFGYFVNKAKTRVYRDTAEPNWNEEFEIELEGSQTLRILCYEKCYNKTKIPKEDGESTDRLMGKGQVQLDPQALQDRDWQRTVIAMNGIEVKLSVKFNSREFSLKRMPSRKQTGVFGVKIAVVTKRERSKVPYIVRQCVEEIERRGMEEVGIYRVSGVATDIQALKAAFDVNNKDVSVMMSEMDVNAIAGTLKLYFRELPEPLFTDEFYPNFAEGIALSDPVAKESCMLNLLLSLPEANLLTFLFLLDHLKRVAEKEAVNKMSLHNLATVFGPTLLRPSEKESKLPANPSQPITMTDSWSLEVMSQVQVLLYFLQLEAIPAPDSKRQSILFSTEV

Key:
[1] = molecular target: T1, Bcr/Abl fusion protein (Homo sapiens) (UniProt P00519+P11274); assay: Inhibition of Bcr-Abl phosphorylation in human K562 cells assessed as phosphorylated ABL protein level at 5 uM measured after 48 hrs by Western blot analysis; type: cell-based
[2] = molecular target: T1, Bcr/Abl fusion protein (Homo sapiens); assay: Inhibition of Bcr-Abl phosphorylation in human K562 cells assessed as phosphorylated ABL protein level at 15 uM measured after 48 hrs by Western blot analysis; type: cell-based

fold change (FC) [1]: 0.593
fold change (FC) [2]: 0.332
SMILES: C[C@H](NC(=O)c1ccc(-c2ccc(NC(=O)C(C)(C)C)nc2)cc1)C(=O)Nc1ccc(Cl)c(C(F)(F)F)c1
